This note sets out measurements from PubChem BioAssay (Tox21).

Chains of the proteins cited; added tags and fusions are not shown. Lines headed by an entry give the natural chain unless they say otherwise; changes in a name come on top.
UniProt O75469: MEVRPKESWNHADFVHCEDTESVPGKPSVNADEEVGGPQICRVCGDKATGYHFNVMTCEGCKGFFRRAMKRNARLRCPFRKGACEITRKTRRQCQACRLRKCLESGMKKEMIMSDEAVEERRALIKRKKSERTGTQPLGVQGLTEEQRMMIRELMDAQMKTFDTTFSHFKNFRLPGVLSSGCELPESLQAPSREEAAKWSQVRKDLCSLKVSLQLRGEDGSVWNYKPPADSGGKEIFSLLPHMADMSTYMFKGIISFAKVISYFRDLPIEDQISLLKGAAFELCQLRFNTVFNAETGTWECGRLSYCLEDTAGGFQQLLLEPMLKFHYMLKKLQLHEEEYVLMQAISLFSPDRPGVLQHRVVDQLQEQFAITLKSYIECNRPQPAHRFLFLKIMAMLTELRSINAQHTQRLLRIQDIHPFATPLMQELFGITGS

What follows is the remainder of the data, with few or none of the hits. Inconclusive results are not listed. The source holds several records for some structures; these can differ, active in one and inactive in another. A call without a number means that no potency is given here. Activity calls are given as the source filed them. The call rests on the fitted dose curve; in most records, active means well fitted activation curve with a large enough effect in the repeat runs; inconclusive means weak or mixed curves; inactive means no such curve, though single readings can be large or run the other way.

For the experiment, the target named is Nuclear receptor subfamily 1 group I member 2 (Homo sapiens) (UniProt O75469). Put plainly: Human pregnane X receptor (PXR) small molecule agonists, qHTS assay (AID 1346982). Further: nearly all actives have a fitted effect of over 35% in size. Conditions: PXR-Luc HepG2, CYP3A4 luciferase reporter, 24 h; series mostly up to 92.4 µM. In a few lines: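 Reporter HepG2 cells expressing PXR-Luc are cultured in charcoal-stripped FBS (5%), treated with compounds for 24 hr at 37 C, and assayed by ONE-Glo luminescence after 30 min at room temperature.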
For orientation: qHTS replaces the single test concentration by a dilution series.
With `CC(=O)[O-].CC(=O)[O-].O.O.O.[Pb+2]`, the Potency result is “inactive”.
Then `O=C(O)c1ccccc1O`, with “inactive”.
Under `O=[N+]([O-])O` stands “inactive”.
